Each structure is given as a SMILES string.

Protein sequences, listed by entry. Tags and fused reporters are not part of them. Residues count along the entry.
UniProt P56817, 46-501: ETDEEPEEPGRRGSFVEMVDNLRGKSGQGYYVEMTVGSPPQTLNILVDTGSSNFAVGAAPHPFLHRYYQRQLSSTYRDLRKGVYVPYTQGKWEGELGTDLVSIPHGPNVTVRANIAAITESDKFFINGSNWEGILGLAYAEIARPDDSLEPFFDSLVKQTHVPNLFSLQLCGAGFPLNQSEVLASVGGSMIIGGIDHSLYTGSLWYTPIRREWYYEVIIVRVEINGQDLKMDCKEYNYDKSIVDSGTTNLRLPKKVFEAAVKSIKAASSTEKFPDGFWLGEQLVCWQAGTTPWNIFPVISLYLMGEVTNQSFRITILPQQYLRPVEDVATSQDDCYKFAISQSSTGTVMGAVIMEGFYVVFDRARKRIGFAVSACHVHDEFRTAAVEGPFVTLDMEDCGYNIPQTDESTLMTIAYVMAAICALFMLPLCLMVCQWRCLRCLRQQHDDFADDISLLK
UniProt P07339, 65-412, species assumed: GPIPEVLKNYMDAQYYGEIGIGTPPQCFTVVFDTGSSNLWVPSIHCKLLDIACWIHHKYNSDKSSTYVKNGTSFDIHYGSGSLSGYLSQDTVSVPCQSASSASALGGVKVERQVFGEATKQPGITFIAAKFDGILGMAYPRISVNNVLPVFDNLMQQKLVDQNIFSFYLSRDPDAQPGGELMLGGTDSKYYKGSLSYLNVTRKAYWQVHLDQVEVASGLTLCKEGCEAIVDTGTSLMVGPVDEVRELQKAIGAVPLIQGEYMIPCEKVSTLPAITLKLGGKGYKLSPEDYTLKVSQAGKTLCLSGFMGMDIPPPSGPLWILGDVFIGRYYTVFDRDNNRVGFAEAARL

As usually defined, the IC50 is the concentration that gives 50% inhibition.

One assay addresses BACE 1 (beta secretase enzyme) (Homo sapiens (Human), UniProt P56817). Put plainly: In vitro enzymatic BACE FRET assay. It counts as biochemical. The note with it: average IC50. The procedure:
In Vitro Enzymatic BACE FRET (Fluorescence Resonance Energy Transfer) Assay
The assay buffer used in this screen is 0.05 M acetate, pH 4.2, 10% DMSO final, 100 uM genapol (which is a nonionic detergent, below its Critical Micelle Concentration). The beta secretase enzyme (0.2 nM) is pre-incubated for one hour with inhibitors, typically in about 1 uL of DMSO according to a serial dilution, are added thereto. This assay is effectively started by the addition of FRET substrate (50 nM) and the combination is incubated for one hour. The FRET assay is terminated with by addition of Tris buffer, which raises the pH to neutrality, and the fluorescence is determined. The FRET substrate is a peptide with commercially available fluorophore and quencher, on opposite sides of the BACE cleavage site. Proteolytic cleavage of the FRET substrate releases quenching of fluorescence (excitation […] and […]).
For `Cc1cccnc1Nc1ccc2c(c1)[C@@]1(CCOC(N)=N1)c1cc(Cl)nc(F)c1O2` [Example 41, (5S)-3-chloro-1-fluoro-N~7~-(3-methyl-2-pyridinyl)-5′,6′-dihydrospiro[chromeno[2,3-c]pyridine-5,4′-[1,3]oxazine]-2′,7-diamine], the IC50 was found to be 254 nM.
With `NC1=N[C@@]2(CCO1)c1cc(NC(=O)c3ccc(Cl)cn3)ccc1Oc1ncc(-c3ccnc(F)c3)cc12` [Example 90, N-((5S)-2′-amino-3-(2-fluoro-4-pyridinyl)-5′,6′-dihydrospiro[chromeno[2,3-b]pyridine-5,4′-[1,3]oxazin]-7-yl)-5-chloro-2-pyridinecarboxamide], the IC50 worked out at 3.4 nM.
Take `COc1cc(F)c2c(c1)[C@]1(CCOC(N)=N1)c1cc(NC(=O)c3ccc(Cl)cn3)ccc1O2` [Example 42, N-((4S)-2-amino-5′-fluoro-7′-methoxy-5,6-dihydrospiro[1,3-oxazine-4,9′-xanthen]-2′-yl)-5-chloro-2-pyridinecarboxamide]: the IC50 was 37.4 nM.
As for `CC#CCOc1cnc(C(=O)Nc2ccc3c(c2)[C@@]2(CCOC(N)=N2)c2cc(Cl)nc(F)c2O3)cn1` [Example 48, N-((5S)-2′-amino-3-chloro-1-fluoro-5′,6′-dihydrospiro[chromeno[2,3-c]pyridine-5,4′-[1,3]oxazin]-7-yl)-5-(2-butyn-1-yloxy)-2-pyrazinecarboxamide], the IC50 came out at 0.4 nM.
In the case of `NC1=N[C@@]2(CCO1)c1cc(NC(=O)c3ccc(Cl)cn3)ccc1Oc1ncc(C3=CCOCC3)cc12` [Example 45, N-((5S)-2′-amino-3-(3,6-dihydro-2H-pyran-4-yl)-5′,6′-dihydrospiro[chromeno[2,3-b]pyridine-5,4′-[1,3]oxazin]-7-yl)-5-chloro-2-pyridinecarboxamide], the concentration for half-maximal inhibition (IC50) is 2.7 nM.
Regarding `COc1cc(F)c2c(c1)[C@]1(CCSC(N)=N1)c1cc(NC(=O)c3ccc(Cl)cn3)ccc1O2` [Example 32, N-((4S)-2-amino-5′-fluoro-7′-methoxy-5,6-dihydrospiro[1,3-thiazine-4,9′-xanthen]-2′-yl)-5-chloro-2-pyridinecarboxamide], the IC50 was 19.3 nM.
For the compound `NC1=N[C@@]2(CCS1)c1cc(NC(=O)c3ccc(Cl)cn3)ccc1Oc1c2cc(C2=CCOCC2)nc1F` [Example 117, N-((5S)-2′-amino-3-(3,6-dihydro-2H-pyran-4-yl)-1-fluoro-5′,6′-dihydrospiro[chromeno[2,3-c]pyridine-5,4′-[1,3]thiazin]-7-yl)-5-chloro-2-pyridinecarboxamide], the IC50 stood at 1 nM.
Same read-out and setting: as for `N#Cc1ccc(C(=O)Nc2ccc3c(c2)[C@@]2(CCOC(N)=N2)c2cc(-c4ccnc(F)c4)cc(F)c2O3)nc1` [Example 108, N-((4S)-2-amino-5′-fluoro-7′-(2-fluoro-4-pyridinyl)-5,6-dihydrospiro[1,3-oxazine-4,9′-xanthen]-2′-yl)-5-cyano-2-pyridinecarboxamide], the figure is 1 nM; as for `NC1=N[C@@]2(CCO1)c1cc(NC(=O)c3ccc(Cl)cn3)ccc1Oc1c2cc(Cl)nc1F` [Example 38, N-((5S)-2′-amino-3-chloro-1-fluoro-5′,6′-dihydrospiro[chromeno[2,3-c]pyridine-5,4′-[1,3]oxazin]-7-yl)-5-chloro-2-pyridinecarboxamide], 6.8 nM; as for `COc1cnc(C(=O)Nc2ccc3c(c2)[C@@]2(CCOC(N)=N2)c2cc(C4CCOCC4)cc(F)c2O3)cn1` [Example 61, N-((4S)-2-amino-5′-fluoro-7′-(tetrahydro-2H-pyran-4-yl)-5,6-dihydrospiro[1,3-oxazine-4,9′-xanthen]-2′-yl)-5-methoxy-2-pyrazinecarboxamide], 32 nM.
For the compound `COc1cnc(C(=O)Nc2ccc3c(c2)[C@@]2(CCOC(N)=N2)c2cc(C4=CCCOC4)cc(F)c2O3)cn1` [Example 106, N-((4S)-2-amino-7′-(5,6-dihydro-2H-pyran-3-yl)-5′-fluoro-5,6-dihydrospiro[1,3-oxazine-4,9′-xanthen]-2′-yl)-5-methoxy-2-pyrazinecarboxamide], the IC50 is 6.8 nM.
As for `COc1cc(F)c2c(c1)[C@]1(CCOC(N)=N1)c1cc(NC(=O)c3cnc(OC)cn3)ccc1O2` [Example 75, N-((4S)-2-amino-5′-fluoro-7′-methoxy-5,6-dihydrospiro[1,3-oxazine-4,9′-xanthen]-2′-yl)-5-methoxy-2-pyrazinecarboxamide], the IC50 was found to be 95.3 nM.
Still for that read-out and setting: as for `NC1=N[C@@]2(CCO1)c1cc(NC(=O)c3ccc(Cl)cn3)ccc1Oc1c2cc(-c2ccnc(F)c2)nc1F` [Example 91, N-((5S)-2′-amino-1-fluoro-3-(2-fluoro-4-pyridinyl)-5′,6′-dihydrospiro[chromeno[2,3-c]pyridine-5,4′-[1,3]oxazin]-7-yl)-5-chloro-2-pyridinecarboxamide], the figure is 0.9 nM; as for `COc1ccc(C(=O)Nc2ccc3c(c2)[C@@]2(CCOC(N)=N2)c2cc(OC)cc(F)c2O3)c(F)c1` [Example 77, N-((4S)-2-amino-5′-fluoro-7′-methoxy-5,6-dihydrospiro[1,3-oxazine-4,9′-xanthen]-2′-yl)-2-fluoro-4-methoxybenzamide], 315 nM.

A further assay deals with Cathepsin D (Homo sapiens (Human), UniProt P07339). Put plainly: In vitro enzymatic Cat D (Cathepsin D) FRET assay. It counts as biochemical. Particulars: average IC50. The procedure: In Vitro Enzymatic Cat D (Cathepsin D) FRET (Fluorescence Resonance Energy Transfer) Assay
Recombinant CathepsinD was expressed in CHO cells. The assay buffer for CathepsinD is 0.05 M citrate pH 3.5, 10% DMSO final, 5 mM CHAPS. […] The assays are effectively started by the addition of different FRET substrates (20 nM for CathepsinD) and the combination is incubated for one hour. The FRET assay is terminated with by addition of Tris buffer, which raises the pH to neutrality, and the fluorescence is determined. The FRET substrate is a peptide with commercially available fluorophore and quencher, on opposite sides of the BACE cleavage site. […] Proteolytic cleavage of the FRET substrate releases quenching of fluorescence (CathepsinD excitation 500 nm and emission 580 nm).
For `COc1cnc(C(=O)Nc2ccc3c(c2)[C@@]2(CCSC(N)=N2)c2cc(-c4cncc(F)c4)nc(F)c2O3)cn1` [Example 112, N-((5S)-2′-amino-1-fluoro-3-(5-fluoro-3-pyridinyl)-5′,6′-dihydrospiro[chromeno[2,3-c]pyridine-5,4′-[1,3]thiazin]-7-yl)-5-methoxy-2-pyrazinecarboxamide], the IC50 was 224000 nM.
Still for that read-out and setting: as for `CC(C)(C)C#Cc1cc2c(cn1)Oc1ccc(NC(=O)c3ccc(Cl)cn3)cc1[C@@]21CCOC(N)=N1` [Example 82, N-((5S)-2′-amino-3-(3,3-dimethyl-1-butyn-1-yl)-5′,6′-dihydrospiro[chromeno[2,3-c]pyridine-5,4′-[1,3]oxazin]-7-yl)-5-chloro-2-pyridinecarboxamide], the figure is 400000 nM; as for `COc1cnc(C(=O)Nc2ccc3c(c2)[C@@]2(CCOC(N)=N2)c2cc(C4=CCCOC4)ncc2O3)cn1` [Example 58, N-((5S)-2′-amino-3-(5,6-dihydro-2H-pyran-3-yl)-5′,6′-dihydrospiro[chromeno[2,3-c]pyridine-5,4′-[1,3]oxazin]-7-yl)-5-methoxy-2-pyrazinecarboxamide], 480000 nM.
On to `NC1=N[C@@]2(CCO1)c1cc(NC(=O)c3ccc(Cl)cn3)ccc1Oc1c2cc(C2CC2)nc1F` [Example 40, N-((5S)-2′-amino-3-cyclopropyl-1-fluoro-5′,6′-dihydrospiro[chromeno[2,3-c]pyridine-5,4′-[1,3]oxazin]-7-yl)-5-chloro-2-pyridinecarboxamide], for which the half-inhibitory concentration (IC50) was 360000 nM.
Take `COc1cnc(C(=O)Nc2ccc3c(c2)[C@@]2(CCOC(N)=N2)c2cc(-c4ccnc(F)c4)cc(F)c2O3)cn1` [Example 95, N-((4S)-2-amino-5′-fluoro-7′-(2-fluoro-4-pyridinyl)-5,6-dihydrospiro[1,3-oxazine-4,9′-xanthen]-2′-yl)-5-methoxy-2-pyrazinecarboxamide]: the IC50 was 400000 nM.
For the compound `NC1=N[C@@]2(CCS1)c1cc(NC(=O)c3ccc(F)cn3)ccc1Oc1c2cc(C2=CCOCC2)nc1F` [Example 116, N-((5S)-2′-amino-3-(3,6-dihydro-2H-pyran-4-yl)-1-fluoro-5′,6′-dihydrospiro[chromeno[2,3-c]pyridine-5,4′-[1,3]thiazin]-7-yl)-5-fluoro-2-pyridinecarboxamide], the IC50 worked out at 211000 nM.
On the same count and under the same terms, as for `Cc1nc(C(=O)Nc2ccc3c(c2)[C@@]2(CCOC(N)=N2)c2cc(C4=CCCOC4)nc(F)c2O3)cs1` [Example 85, N-((5S)-2′-amino-3-(5,6-dihydro-2H-pyran-3-yl)-1-fluoro-5′,6′-dihydrospiro[chromeno[2,3-c]pyridine-5,4′-[1,3]oxazin]-7-yl)-2-methyl-1,3-thiazole-4-carboxamide], the figure is 411000 nM; as for `NC1=N[C@@]2(CCO1)c1cc(NC(=O)c3ccc(F)cn3)ccc1Oc1c2cc(-c2ccnc(F)c2)nc1F` [Example 97, N-((5S)-2′-amino-1-fluoro-3-(2-fluoro-4-pyridinyl)-5′,6′-dihydrospiro[chromeno[2,3-c]pyridine-5,4′-[1,3]oxazin]-7-yl)-5-fluoro-2-pyridinecarboxamide], 400000 nM; as for `N#Cc1ccc(C(=O)Nc2ccc3c(c2)[C@@]2(CCOC(N)=N2)c2cc(C4=CCOCC4)nc(F)c2O3)nc1` [Example 64, N-((5S)-2′-amino-3-(3,6-dihydro-2H-pyran-4-yl)-1-fluoro-5′,6′-dihydrospiro[chromeno[2,3-c]pyridine-5,4′-[1,3]oxazin]-7-yl)-5-cyano-2-pyridinecarboxamide], 400000 nM.
Still for that read-out and setting: as for `Cc1nc(C(=O)Nc2ccc3c(c2)[C@@]2(CCOC(N)=N2)c2cc(-c4ccnc(F)c4)nc(F)c2O3)cs1` [Example 99, N-((5S)-2′-amino-1-fluoro-3-(2-fluoro-4-pyridinyl)-5′,6′-dihydrospiro[chromeno[2,3-c]pyridine-5,4′-[1,3]oxazin]-7-yl)-2-methyl-1,3-thiazole-4-carboxamide], the figure is 400000 nM.

These data come from patent publication US9296759B2, “Amino-oxazine and amino-dihydrothiazine compounds as beta-secretase modulators and methods of use” (AMGEN INC., priority 2011, dated 2016).
